# Membrane permeability of cyclic peptides

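Conditions beyond the assay type are not listed; see the original paper. The list need not hold all peptides of the study. Entries at the database's floor value (log10 P of -10) are not listed.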

PAMPA is the parallel artificial membrane permeability assay, which has no cells and reads passive diffusion.
Values are log10 P with P in cm/s, so -5 is more permeable than -7.

Listed for CC(C)C[C@@H]1NC(=O)[C@H](CC(C)C)N(C)C(=O)[C@H](C)NC(=O)[C@H](Cc2ccccc2)NC(=O)[C@H](CC(C)C)N(C)C(=O)[C@@H]2CCCN2C1=O: PAMPA -5.28 (log10 cm/s).
Listed for CCCN1CC(=O)N[C@@H](CC(C)C)C(=O)N(C)[C@H](CC(C)C)C(=O)N2CCC[C@@H]2C(=O)N[C@H](CC(C)C)C(=O)N[C@@H](Cc2ccccc2)C(=O)N2CCC[C@H]2C1=O: PAMPA -5.60 (log10 cm/s).
Listed for CC(C)C[C@@H]1NC(=O)[C@H](C)NC(=O)[C@@H]2CCCN2C(=O)[C@H](Cc2ccccc2)NC(=O)CN(Cc2ccccc2)C(=O)[C@H]2CCCN2C(=O)CN(Cc2ccccc2)C1=O: PAMPA -6.94 (log10 cm/s).
Listed for CC(C)C[C@@H]1NC(=O)[C@@H]2CCCN2C(=O)[C@H](CC(C)C)NC(=O)CN(Cc2ccccc2)C(=O)[C@H](C)NC(=O)[C@H](Cc2ccccc2)NC1=O: PAMPA -6.05 (log10 cm/s).
Listed for CC(C)C[C@H]1NC(=O)[C@@H]2CCCN2C(=O)[C@H](CC(C)C)N(C)C(=O)[C@@H](CC(C)C)NC(=O)C[C@H](Cc2ccccc2)NC(=O)[C@H]2CCCN2C(=O)[C@H](Cc2ccccc2)NC1=O: PAMPA -5.51 (log10 cm/s).
Listed for CC(C)C[C@@H]1NC(=O)[C@@H](CC(C)C)NC(=O)[C@@H](C)N(C)C(=O)[C@@H]2CCCN2C(=O)[C@H](Cc2ccccc2)NC(=O)[C@@H](CC(C)C)N(C)C(=O)[C@@H]2CCCN2C1=O: PAMPA -5.79 (log10 cm/s).
Listed for CC(C)C[C@@H]1C(=O)N(C)[C@H](CC(C)C)C(=O)N2CCC[C@H]2C(=O)N[C@H](CC(C)C)C(=O)N[C@@H](Cc2ccccc2)C(=O)N2CCC[C@H]2C(=O)N[C@@H](C)C(=O)N1C: PAMPA -5.70 (log10 cm/s).
Listed for CC(C)C[C@H]1C(=O)N(C)[C@@H](CC(C)C)C(=O)N2CCC[C@H]2C(=O)N(Cc2ccccc2)CC(=O)N[C@@H](Cc2ccccc2)C(=O)N2CCC[C@@H]2C(=O)N(C)[C@@H](C)C(=O)N1C: PAMPA -5.03 (log10 cm/s).
Listed for CC(C)C[C@@H]1NC(=O)[C@H]2CCCN2C(=O)CN(Cc2ccccc2)C(=O)[C@H](CC(C)C)NC(=O)[C@H](C)NC(=O)[C@H](Cc2ccccc2)NC1=O: PAMPA -6.54 (log10 cm/s).
Listed for CCCN1CC(=O)N[C@H](CC(C)C)C(=O)N[C@H](CC(C)C)C(=O)N2CCC[C@H]2C(=O)N[C@@H](CC(C)C)C(=O)N[C@@H](Cc2ccccc2)C1=O: PAMPA -5.08 (log10 cm/s).
Listed for CC(C)C[C@@H]1NC(=O)[C@H](C)NC(=O)[C@H](Cc2ccccc2)NC(=O)[C@@H](CC(C)C)NC(=O)[C@H]2CCCN2C(=O)[C@H](CC(C)C)N(C)C1=O: PAMPA -6.52 (log10 cm/s).
Listed for CCCN1CC(=O)N[C@H](CC(C)C)C(=O)N[C@H](CC(C)C)C(=O)N2CCC[C@@H]2C(=O)N(Cc2ccccc2)CC(=O)N[C@@H](Cc2ccccc2)C(=O)N2CCC[C@@H]2C1=O: PAMPA -5.50 (log10 cm/s).
Listed for CC(C)C[C@@H]1NC(=O)[C@H](C)N(C)C(=O)[C@H]2CCCN2C(=O)[C@H](Cc2ccccc2)NC(=O)[C@H](CC(C)C)N(C)C(=O)[C@@H]2CCCN2C(=O)[C@H](CC(C)C)N(C)C1=O: PAMPA -5.01 (log10 cm/s).

The 2 highest values of PAMPA among the entries above:

CC(C)C[C@@H]1NC(=O)[C@H](C)N(C)C(=O)[C@H]2CCCN2C(=O)[C@H](Cc2ccccc2)NC(=O)[C@H](CC(C)C)N(C)C(=O)[C@@H]2CCCN2C(=O)[C@H](CC(C)C)N(C)C1=O has PAMPA -5.01 (log10 cm/s).
CC(C)C[C@H]1C(=O)N(C)[C@@H](CC(C)C)C(=O)N2CCC[C@H]2C(=O)N(Cc2ccccc2)CC(=O)N[C@@H](Cc2ccccc2)C(=O)N2CCC[C@@H]2C(=O)N(C)[C@@H](C)C(=O)N1C has PAMPA -5.03 (log10 cm/s).

Values of Townsend et al. 2020, doi:10.26434/chemrxiv.13335941.v1, as listed in CycPeptMPDB.